Series [1] deals with the molecule itself. Description: seeded polymerization of purified Rnq1, Thioflavin T fluorescence.
The series “seeded fiber assembly” deals with the molecule itself. Kind of series: seeded fiber assembly.

Results on two proteins are retold here after patent US20050266242A1 (WHITEHEAD INSTITUTE FOR BIOMEDICAL RESEARCH, published 2005).

B1: Rnq1, purified recombinant protein (other)
chain: MDTDKLISEAESHFSQGNHAEAVAKLTSAAQSNPNDEQMSTIESLIQKIAGYVMDNRSGGSDASQDRAAGGGSSFMNTLMADSKGSSQTQLGKLALLATVMTHSSNKGSSNRGFDVGTVMSMLSGSGGGSQSMGASGLAALASQFFKSGNNSQGQGQGQGQGQGQGQGQGQGSFTALASLASSFMNSNNNNQQGQNQSSGGSSFGALASMASSFMHSNNNQNSNNSQQGYNQSYQNGNQNSQGYNNQQYQGGNGGYQQQQGQSGGAFSSLASMAQSYLGGGQTQSNQQQYNQQGQNNQQQYQQQGQNYQHQQQGQQQQQGHSSSFSALASMASSYLGNNSNSNSSYGGQQQANEYGRPQHNGQQQSNEYGRPQYGGNQNSNGQHESFNFSGNFSQQNNNGNQNRY
In the case of B1, in series [1], the binding result is reported as “binds”.

B2: NM^K184C (NM in which the lysine residue at position 184 was substituted by cysteine) (other)
chain: MSDSNQGNNQQNYQQYSQNGNQQQGNNRYQGYQAYNAQAQPAGGYYQNYQGYSGYQQGGYQQYNPDAGYQQQYNPQGGYQQYNPQGGYQQQFNPQGGRGNYKNFNYNNNLQGYQAGFQPQSQGMSLNDFQKQQKQAAPKPKKTLKLVSSSGIKLANATKKVGTKPAESDKKEEEKSAETKEPTCEPTKVEEPVKKEEKPVQTEEKTEEKSELPKVEDLKISESTHNTNNANVTSADALIKEQEEEVDDEVVND
notes: also called K184C sonicated fibers; short NM^K184C fibrils
As for B2, in “seeded fiber assembly”, the binding result was “binds”.
